Experimental data published in BindingDB's records for doi:10.1021/acs.jmedchem.8b00408 (Duquesne University, 2018).

Biological target: Folate receptor alpha (Homo sapiens) (UniProt P15328)
Test: Binding affinity to human FRalpha expressed in human HeLa R1-11-FR2 cells assessed as antiproliferative activity measured as reduction in cell growth after 96 hrs by Cell-Titer Blue assay

**Q.** How did the IC50 turn out when `Nc1nc2[nH]c(CCCc3csc(C(=O)N[C@@H](CCC(=O)O)C(=O)O)c3)cc2c(=O)[nH]1` was run?
**A.** 7.6 nM
